Results: patent US20190134148A1, “COMBINATION THERAPY” (BIG DNA LTD, priority 2016, published 2019)

Experiments:
[1] = test system: T47D breast cancer cell line; assay: Sulforhodamine B viability assay and isobologram / combination index in T47D cells; type: cell-based; conditions: Homo sapiens, read-out: Bortezomib (M), concentration resulting in 50% reduction in viability as single agent (IC50)
Experimental: For assessment of combined BTZ and cilengitide toxicity, T47D cells were seeded at a density of 7500 cells/cm^2 in 96-well cell culture plates and incubated for 24 hours. Cilengitide was diluted to 20 μM in complete DMEM, then 3 serial tenfold dilutions of this were performed in complete DMEM (2 μM, 200 nM and 20 nM). Complete DMEM containing no cilengitide was provided for negative controls.
These dilutions (or DMSO for wells containing no BTZ) were added to aliquots of complete DMEM containing 0-20 μM cilengitide for a 1/150 dilution. Aliquots (0.1 mL) of each mixture were added to wells already containing 0.1 mL medium (in duplicate), resulting in a matrix of cilengitide (10 nM-10 μM) and/or BTZ (1 nM-10 μM) or neither agent (diluent only).
OD570nm readings were divided by those resulting from negative control (diluent only) wells and expressed as a percentage. Three independent replicates of this experiment were carried out.
The isoboles were obtained similarly by extrapolation of points representing 50% reduction in viability from line graphs of % viability versus concentration of one agent at variable concentration with the other agent supplied at a fixed concentration. […]

[2] = test system: NCI H-929 human multiple myeloma cells; assay: NCI-H929 sub-cutaneous xenograft mouse tumor model, 'high' bortezomib dose (Example 7); type: in vivo, SCID mouse; conditions: sum of PR+CR, N = 10, bortezomib 1 mg/kg IV biweekly, cilengitide 45 mg/kg IP QD
Experimental: A scoping study was conducted to compare the efficacy of bortezomib with a bortezomib/cilengitide combination regime in vivo in a sub cutaneous SCID mouse xenograft model using NCI H-929 human multiple myeloma cells. The dose of bortezomib tested was 1 mg/kg. H929 cells were implanted and allowed to grow until mean tumour volumes of 101-103 mm^3 were reached on Day 1, whereupon treatment began. This was then continued until Day 21.
Partial response (PR) is defined as the first measurement of the tumor volume being 50% or less of its Day 1 volume for three consecutive measurements during the course of the study, and equal to or greater than 13.5 mm^3 for one or more of these three measurements. In a complete response (CR), the tumor volume was less than 13.5 mm^3 for three consecutive measurements during the course of the study. Total response rate (RR) is the sum of PR+CR. Treatment began on day 1 and was stopped on Day 21. Bortezomib was given as Velcade (1 mg/kg IV biweekly) with cilengitide (45 mg/kg IP, QD).

**Q.** Which results are given for `CC(C)C[C@H](NC(=O)[C@H](Cc1ccccc1)NC(=O)c1cnccn1)B(O)O` [Bortezomib]?
**A.** IC50 [1]: 8.9e-08 M; Total RR % ([2]; Day 12): 80%; Total RR % ([2]; Day 15): 80%
